{"source": "paper PMC9049830", "about": "(RSC Advances, 2020)", "assay": "Solubility", "format": "physicochemical", "data": [{"substance": "L-valine isopropyl ester ibuprofenate [[ValOiPr][IBU]]", "values": [{"measurement": "Solubility in water", "setting": "deionised water, 25 °C", "value": "3.468 ± 0.007", "unit": "g dm^−3"}, {"measurement": "Solubility in phosphate buffer pH = 5.4", "setting": "pH 5.4, 25 °C", "value": "2.350 ± 0.027", "unit": "g dm^−3"}, {"measurement": "Solubility in phosphate buffer pH = 7.4", "setting": "pH 7.4, 25 °C", "value": "4.998 ± 0.018", "unit": "g dm^−3"}]}]}
